# B2AR arrestin: beta2AR (human) beta-arrestin recruitment activity. P07550. beta-arrestin recruitment to beta2AR, cell-based reporter. Potency, µM (top dose mostly 46.1 µM), most hits filed as activators. 330,000 tested, 0.02% active; also: nearly all actives have a fitted effect of over 65% in size
# Nrf2 inh: blocks Nrf2 signaling; A549 ARE-Fluc reporter, luciferase luminescence, 18-24 h; Potency, µM (top dose mostly 46 µM), actives largely listed as inhibitors; 360,000 tested, 2.1% active; AID 504444; also: nearly all actives have a fitted effect of over 60% in size
#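 Nrf2 activity is the BugLite luminescence, read 15 min after reagent at room temperature, following CellTiter-Fluor cytotoxicity readout (30 min, 37C). Compound titrations were applied for 18-24 h to 5000 A549 ARE_Fluc cells/well in 5% FBS OPTI-MEM.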
# miR-21 reporter: miR-21 reporter, rising signal; HeLa miR-21 FLuc reporter, luciferase, 48 h; Potency, µM (highest dose often 38.3 µM); 340,000 tested, under 10 active; AID 2288; active = well fitted rising curve with a large enough effect; inconclusive = small, poorly fitted or top-dose-only effect; inactive = no such curve, though single readings can be large or run the other way;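 further: miR-21 action dims this reporter so a rising signal means less miR-21 action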
#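 HeLa miR-21-FLuc reporter line, endogenous miR-21; 2000 cells/well in DMEM/10% FBS; compound titration up to ~40uM final, 48 h, 37 degree Celsius; luciferase detection reagent, 15 min lysis, CCD luminescence.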
# A549 viability: counter-screen for Nrf2 inhibitors: cytotoxicity in A549 cells | 390,000 tested, 0.16% active | Potency, µM (titrated, usually from 46 µM), actives largely listed as inhibitors | A549 ARE-Fluc cells, CellTiter-Fluor viability, 18-24 h | AID 504648
#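 Cytotoxicity counterscreen: CellTiter-Fluor fluorescence was measured in A549 ARE_Fluc cells after 18-24 h of compound exposure in a concentration series. The subsequent BugLite luminescent read reports ARE-luciferase activity.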
# Nrf2 ARE act: activators of Nrf2 (ARE) signaling; Potency, µM (top dose mostly 46.1 µM), hits mostly activators; 410,000 tested, 0.31% active; AREc32 ARE-luciferase reporter (MCF7-derived line), luminescence, 24 h; also: nearly all actives have a fitted effect of over 65% in size
#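 Nrf2 activation is followed as ARE-luciferase induction in the AREc32 line after one day of compound treatment; luminescence is read with Steady-Glo.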
# Hits are given with their value; 0 = inactive; ? = inconclusive; - = not tested or not shown. The list is not random: actives were taken first. Their share in the collection is about 2.2%. Unless noted, calls follow the shape of the dose curve; as a rule, active = well fitted curve in the direction sought with a large enough effect; inconclusive = small, poorly fitted or top-dose-only effect, or another doubt; inactive = no such curve, though single readings can be large; an effect the other way counts as inactive or inconclusive.
SMILES,B2AR arrestin,Nrf2 inh,miR-21 reporter,A549 viability,Nrf2 ARE act
CC(C)CC(=O)NC(c1cccs1)c1ccc2cccnc2c1O (stereo unspecified),0,21µM,0,?,0
CC(=O)NC(c1ccc(Cl)cc1Cl)c1ccc2cccnc2c1O (stereo unspecified),0,?,0,0,0
Cn1c(=O)c2sccc2n2c(CCCC(=O)Nc3ccc(Oc4ccc(Cl)cc4)cc3)nnc12,-,0,?,0,0
COc1ccccc1NC(=O)CSc1nnc(-c2nonc2NC(C)=O)n1-c1ccccc1,-,0,0,0,0
CC1Cc2cc(S(=O)(=O)N(C)c3ccc(Br)cc3)ccc2N1C(=O)C1CC1 (stereo unspecified),-,?,?,0,0
COC(=O)c1sc(-c2cccs2)cc1N,0,0,0,0,8.9µM
O=C(NCc1ccccc1Cl)C1CCCN(c2nc3ccccc3n3cccc23)C1 (stereo unspecified),-,0,?,0,0
CC(C)Cn1c2c(c(O)c(C(=O)Nc3nccs3)c1=O)CCCC2,0,21µM,0,0,0
CCOc1cccc(C2C=C(c3ccc4c(c3)OCO4)NC(c3cccc(Br)c3)N2)c1O (stereo unspecified),-,0,-,0,-
CCOc1ccccc1C1NC(c2ccc3c(c2)OCO3)=CC(c2ccccc2O)N1 (stereo unspecified),-,0,-,0,-
COc1ccc(Br)cc1/C=C/C(=O)c1ccc(NC(C)=O)cc1,0,5.2µM,?,8.2µM,?
COc1ccc(NC(=O)/C=C/c2cc(Br)ccc2OC)cc1,0,0,0,0,0
Cc1ccc(C)c(SC2=NS(=O)(=O)c3ccccc32)c1,-,0,-,0,-
CC1Cc2cc(-c3csc(NC(=O)Cc4ccccc4)n3)ccc2N1S(C)(=O)=O (stereo unspecified),0,15µM,0,0,0
O=C(CSc1ncnc2[nH]ncc12)Nc1nc(-c2ccc(F)c(F)c2)cs1,0,6.5µM,0,0,0
Cc1cccc(C)c1NC(=O)CSc1ncnc2[nH]ncc12,0,0,-,0,0
O=C(Cc1ccc(F)cc1)Nc1nc(-c2ccc(F)c(F)c2)cs1,0,23µM,0,0,0
CS(=O)(=O)N1CCc2cc(-c3csc(NC(=O)C(c4ccccc4)c4ccccc4)n3)ccc21,0,0,0,0,0
COc1ccc(-n2nc(C(=O)O)c3csc(N)c3c2=O)cc1,-,0,-,0,-
Cc1ccc(NS(=O)(=O)c2ccc3c(ccn3C)c2)cc1C,-,?,-,0,-
Cc1ccc(-n2nc3c4c(cccc4c2=O)-c2ccccc2-3)cc1,0,?,0,16µM,0
O=C(O)Cn1nc2c3c(cccc3c1=O)-c1ccccc1-2,0,0,0,0,0
Cc1ccc(-c2nc(N3CCN(S(=O)(=O)c4ccc(F)cc4)CC3)c3ccc(Cl)cc3n2)cc1,-,0,-,0,-
O=C(NCc1ccccn1)C1(C(F)(F)F)CC(CCCO)CCCO1 (stereo unspecified),-,0,-,0,-
CC1(C)CC(=O)C2=C(C1)OC1=C(C(=O)CC(C)(C)C1)C2c1ccc(O)cc1O,0,-,?,18µM,0
SMILES,B2AR arrestin,Nrf2 inh,miR-21 reporter,A549 viability,Nrf2 ARE act
CC1(C)CC(=O)C2=C(C1)OC1=C(C(=O)CC(C)(C)C1)C2c1ccc(O)c([N+](=O)[O-])c1,0,0,0,0,0
COc1ccc(-n2c(SCC#N)nnc2-c2ccc(NS(=O)(=O)c3ccc(C)cc3)cc2)cc1,0,10µM,0,0,0
Cc1ccc(-c2nc(NC(=O)c3nn(C)cc3[N+](=O)[O-])sc2C)cc1,0,18µM,?,?,0
Cc1ccc(-c2nc(NC(=O)c3nn(C)cc3[N+](=O)[O-])sc2C)cc1C,0,26µM,0,0,?
Cc1cnc(NC(=O)c2nn(C)cc2[N+](=O)[O-])s1,0,?,0,0,0
O=C1CCCC2=C1C(c1cccs1)n1nc(SCc3ccccc3F)nc1N2 (stereo unspecified),0,18µM,0,0,0
CC(=O)N(O)CCCCCNC(=O)CCC(=O)N(O)CCCCCNC(=O)CCC(=O)N(O)CCCCCN,0,10µM,0,0,0
Cc1nn(-c2ccc(Cl)cn2)c2c1C(=O)CC(C)(C)C2Br (stereo unspecified),-,0,-,0,0
Cc1ccc(-n2nc(C)c3c2C(Br)C(C)(C)CC3=O)nc1 (stereo unspecified),-,7.3µM,-,0,0
O=C(COC(=O)C12CC3CC(CC(Br)(C3)C1)C2)NCc1ccco1,-,0,-,0,-
Cc1cc(C)cc(OCC(=O)NNC(=O)c2ccccn2)c1,0,10µM,-,0,0
CC1(C)CC(=O)C2=C(C1)NC(Nc1nc3ccccc3o1)=NC2c1cccc(O)c1 (stereo unspecified),-,21µM,-,?,-
COc1ccc(CN(C(=O)Cc2c[nH]c3ccccc23)C(C(=O)NC2CCCCC2)c2ccc(C)o2)cc1 (stereo unspecified),0,12µM,0,?,0
COc1cccc(CN(C(=O)Cc2c[nH]c3ccccc23)C(C(=O)NC2CCCCC2)c2ccc(C)o2)c1 (stereo unspecified),0,21µM,?,?,0
Cc1ccc(C(=O)c2cn(Cc3cccc(C)c3)c3nc(C)ccc3c2=O)cc1,-,0,0,0,0
COCC(C)N1C(=O)Cc2c1nc(N)c1c(N)nc(N3CCN(c4ccccc4F)CC3)c(C#N)c21 (stereo unspecified),0,12µM,0,0,0
O=C(Nc1nnc(SCc2ccc(F)cc2)s1)C1Cc2ccccc2CN1C(=O)c1ccco1 (stereo unspecified),0,16µM,0,?,0
O=C(Nc1nnc(C2CC2)s1)C1Cc2ccccc2CN1C(=O)c1ccco1 (stereo unspecified),0,0,0,0,0
O=S(=O)(c1ccc(Cl)cc1)N1CCN(c2ncnc3sccc23)CC1,0,21µM,-,0,0
CC1=CC(=O)C(Sc2ccc(C)cc2)=CC1=O,-,-,-,-,13µM
Cc1c(P(=S)(c2ccccc2)c2ccccc2)c2ccccc2n1CCc1ccccc1,-,0,-,0,-
O=C(Nc1ccc(S(=O)(=O)N2CCN(Cc3ccccc3)CC2)cc1)c1cnccn1,0,4.1µM,0,0,0
CN(C)C(=O)c1ccc(NC(=O)c2cccc(S(=O)(=O)N3CCN(Cc4ccccc4)CC3)c2)cc1,-,18µM,-,0,0
CCOc1ccc(CN2CCN(S(=O)(=O)c3ccc(NC(C)=O)cc3)CC2)cc1,0,21µM,0,0,0
CN(CC(=O)Nc1ccc(Cl)cc1)C(=O)c1cccc(S(=O)(=O)N2CCN(Cc3ccccc3)CC2)c1,0,13µM,-,?,0
Cc1nc2ccc(S(=O)(=O)CCC(=O)Nc3ccc(F)cc3C)cc2s1,-,0,0,0,0
CS(=O)(=O)c1ccc(NC(=O)c2cccc(S(=O)(=O)N3CCN(Cc4ccccc4)CC3)c2)cc1,0,13µM,0,0,0

# From PubChem
